Data from patent US7462599.

Legend:
Gln^3-Aβ(3-11)a = biological target: T1, Gln^3-Aβ(3-11)a
T1 chain: QFRHDSGYE

H-Gln-Ala-Ala-NH2 = biological target: T2, H-Gln-Ala-Ala-NH2
T2 chain: QAA

H-Gln-Gln-OH = biological target: T3, H-Gln-Gln-OH
T3 chain: QQ

[Gln^1]-Gastrin = biological target: T4, [Gln^1]-Gastrin
T4 chain: QGPWLEEEEEAYGWMDF

B1: recombinant human glutaminyl cyclase (QC, EC 2.3.2.5) (protein)
chain: VSPSASAWPEEKNYHQPAILNSSALRQIAEGTSISEMWQNDLQPLLIERYPGSPGSYAARQHIMQRIQRLQADWVLEIDTFLSQTPYGYRSFSNIISTLNPTAKRHLVLACHYDSKYFSHWNNRVFVGATDSAVPCAMMLELARALDKKLLSLKTVSDSKPDLSLQLIFFDGEEAFLHWSPQDSLYGSRHLAAKMASTPHPPGARGTSQLHGMDLLVLLDLIGAPNPTFPNFFPNSARWFERLQAIEHELHELGLLKDHSLEGRYFQNYSYGGVIQDDHIPFLRRGVPVLHLIPSPFPEVWHTMDDNEENLDESTIDNLNKILQVFVLEYLHL
KM (determined in absence of DMSO) (Gln^3-Aβ(3-11)a): 87 µM
KM (substrate conversion by QC) (H-Gln-Ala-Ala-NH2): 87 µM
KM (buffer containing 1% DMSO) (Gln^3-Aβ(3-40)): 89 µM
KM (discontinuous method) (H-Gln-Gln-OH): KM=175±18 µM
KM (substrate conversion by QC) ([Gln^1]-Gastrin): 31 µM
